# Results as given in ChEMBL document CHEMBL3393060, “Inhibitors of c-Jun N-terminal kinases: an update” (J Med Chem, 2015).
# Chains of the proteins cited; added tags and fusions are not shown. Lines headed by an entry give the natural chain unless they say otherwise; changes in a name come on top.
# UniProt P53779: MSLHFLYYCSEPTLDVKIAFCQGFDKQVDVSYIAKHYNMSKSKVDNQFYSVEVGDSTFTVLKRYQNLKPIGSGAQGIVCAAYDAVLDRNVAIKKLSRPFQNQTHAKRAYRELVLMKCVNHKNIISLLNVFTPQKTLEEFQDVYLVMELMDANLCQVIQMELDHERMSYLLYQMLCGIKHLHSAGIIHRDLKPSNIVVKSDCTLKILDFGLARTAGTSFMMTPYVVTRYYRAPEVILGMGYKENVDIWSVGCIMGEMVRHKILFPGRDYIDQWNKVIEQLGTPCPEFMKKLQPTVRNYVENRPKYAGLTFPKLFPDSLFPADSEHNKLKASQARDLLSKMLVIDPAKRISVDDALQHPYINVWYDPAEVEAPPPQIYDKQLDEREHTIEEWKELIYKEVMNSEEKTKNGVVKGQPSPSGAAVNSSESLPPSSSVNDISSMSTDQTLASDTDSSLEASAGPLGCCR
# Experiments:
# [1] = molecular target: T1, Mitogen-activated protein kinase 10 (Homo sapiens, UniProt P53779); assay: Inhibition of JNK3 (unknown origin) after 1 hr incubation
# [2] = molecular target: T1, Mitogen-activated protein kinase 10; assay: Inhibition of JNK3-mediated c-jun phosphorylation in human HeLa cells after 1 hr incubation; format: cell-based
structure (smiles),measurement,setting,value
CN(C)C/C=C/C(=O)Nc1cccc(C(=O)Nc2ccc(Nc3nccc(-c4cccnc4)n3)cc2)c1,IC50,[1],0.7 nM
same,IC50,[2],130 nM
